Reference: PubChem BioAssay AID463115 (University of Pittsburgh Molecular Library Screening Center, 2010)
The entries are a selection whose mix differs from that of the whole data set. Some results for these compounds are left out of this collection, so the calls shown say nothing about other tests. Calls of active or inactive are those of the source. No stated cut-off is given here; in the data, active means inhibition above about 25%; inactive means the rest.

Amino acid sequences for entries named in this document (tags omitted). Residues count along the entry.
UniProt P09958, 108-714 limits assumed: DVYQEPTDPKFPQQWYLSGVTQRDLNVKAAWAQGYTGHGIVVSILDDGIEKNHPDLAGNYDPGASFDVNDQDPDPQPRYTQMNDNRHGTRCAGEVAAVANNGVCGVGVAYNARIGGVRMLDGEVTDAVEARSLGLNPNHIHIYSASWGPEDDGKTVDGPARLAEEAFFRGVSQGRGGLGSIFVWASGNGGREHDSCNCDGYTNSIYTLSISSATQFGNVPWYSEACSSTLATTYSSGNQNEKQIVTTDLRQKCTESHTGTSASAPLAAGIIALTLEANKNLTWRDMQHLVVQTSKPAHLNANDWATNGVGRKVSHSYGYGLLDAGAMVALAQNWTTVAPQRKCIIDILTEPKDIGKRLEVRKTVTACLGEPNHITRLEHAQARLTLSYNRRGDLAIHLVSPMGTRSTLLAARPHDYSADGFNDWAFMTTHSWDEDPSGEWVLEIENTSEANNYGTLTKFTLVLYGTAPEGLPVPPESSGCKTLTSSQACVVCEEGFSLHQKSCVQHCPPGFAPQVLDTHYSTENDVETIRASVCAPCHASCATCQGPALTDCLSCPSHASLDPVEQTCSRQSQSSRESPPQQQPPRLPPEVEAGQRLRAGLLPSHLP

Each molecule was assayed against Furin (Homo sapiens) (UniProt P09958) (assay: furin protease activity blockers – biochemical, fluorescence intensity, primary screen (AID 463115)). Conditions: purified furin, fluorogenic substrate cleavage, active compounds read high; at 30 µM unless noted.

SMILES | inhibition
O=C(NCC1(N2CCCCC2)CCCCC1)c1cc([N+](=O)[O-])ccc1Cl | inactive: -15.6%
CCN(CC)CC(C)C(C)OC(=O)C(O)(c1ccccc1)c1ccccc1 (stereo unspecified) | inactive: -1.87%
CC(C)N1C(=O)CC2(CCN(CCOC(=O)C(O)(c3ccccc3)c3ccccc3)CC2)C1=O | inactive: -8.37%
CN(C)C1CCCC1OC(=O)C(O)(c1ccccc1)c1ccccc1 (stereo unspecified) | inactive: -12.6%
Cc1ccccc1C(=O)NCC1(N2CCCCC2)CCCCC1 | inactive: -18.5%
C=CCN1CCN(CCOC(=O)C(O)(c2ccccc2)c2ccccc2)CC1 | inactive: -15.9%
CCN1CCCC(OC(=O)C2(O)c3ccccc3C=Cc3ccccc32)C1 (stereo unspecified) | inactive: -21.3%
COc1cccc(C(=O)NCC2(N3CCCCC3)CCCCC2)c1 | inactive: -22%
O=C(OC1CN2CCC1CC2)C(CO)(c1ccccc1)c1ccccc1 (stereo unspecified) | inactive: -23.9% [at 20 µM]
COc1ccc(Br)c(C(=O)NCC2(N3CCCCC3)CCCCC2)c1 | inactive: -18.7%
CN(C)c1cccc(C(=O)NCC2(N(C)C)CCCCC2)c1 | inactive: -22.1%
